Assays:
[1] = Chemical stability at pH 3.0 or 7.4, 37℃, HPLC; type: physicochemical; settings: buffer
[2] = Metabolic stability in mouse liver S‐9; type: in vitro ADME; settings: Table 3; 88 µM, 30 min, 37℃, n = 3
Human FMO1 = target: T1, Human FMO1 (Homo sapiens, UniProt Q01740); assay: Metabolism by highly purified human FMO1; type: in vitro ADME; settings: Table 3; 88 µM, 15 µg FMO1, 30 min, 37℃, n = 3
T1 sequence (Q01740 1-532): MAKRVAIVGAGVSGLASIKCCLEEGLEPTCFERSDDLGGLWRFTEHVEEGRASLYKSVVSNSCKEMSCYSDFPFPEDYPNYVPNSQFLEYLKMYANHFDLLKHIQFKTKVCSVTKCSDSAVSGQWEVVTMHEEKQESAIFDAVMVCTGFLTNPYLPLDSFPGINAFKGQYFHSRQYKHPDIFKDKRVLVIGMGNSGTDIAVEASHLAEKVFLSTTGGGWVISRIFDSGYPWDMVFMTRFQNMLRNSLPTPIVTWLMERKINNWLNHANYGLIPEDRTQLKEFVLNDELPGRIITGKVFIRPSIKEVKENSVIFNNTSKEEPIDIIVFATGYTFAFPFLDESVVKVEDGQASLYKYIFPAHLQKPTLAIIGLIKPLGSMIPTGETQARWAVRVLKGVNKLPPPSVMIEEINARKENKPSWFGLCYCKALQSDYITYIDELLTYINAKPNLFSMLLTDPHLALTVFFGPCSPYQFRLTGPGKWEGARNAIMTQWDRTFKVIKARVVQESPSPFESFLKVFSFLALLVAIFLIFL

[3] = Metabolic stability in human liver S‐9; type: in vitro ADME; settings: Table 3; 88 µM, 30 min, 37℃, n = 3

half-life ([1]; pH 3) | half-life ([1]; pH 7.4) | Rate metabolized, Mouse S‐9 [2] | Rate metabolized, Human FMO1 (Human FMO1) | Rate metabolized, Human S‐9 [3] | SMILES
> 15 days | > 30 days |  |  |  | Cl.[2H]C(C)(N)COc1c(C)cccc1C (stereo not drawn) [Compound 17, 1-(2,6-Dimethylphenoxy)propan-2-d-2-amine hydrochloride]
 |  | 0.67 ± 0.04 nmol/min/mg of protein | 5.33 ± 0.08 nmol/min/mg of protein | 0.33 ± 0.1 nmol/min/mg of protein | Cc1cccc(C)c1OCC(C)N (centres unmarked) [Mexiletine, reference compound]
